Reference: ChEMBL document CHEMBL4419168, “Substituted n-([1,1''-biphenyl]-3-yl)-[1,1''-biphenyl]-3-carboxamide analogs as inhibitors for beta-catenin/b-cell lymphoma 9 interactions” (2018)
One block for each compound: values may come before it. Active and inactive are the calls of the source. The rule behind the calls is not given here.

Amino acid sequences for entries named in this document (tags omitted). A change or cut given only in a name is not applied to a line headed by its entry.
UniProt P35222: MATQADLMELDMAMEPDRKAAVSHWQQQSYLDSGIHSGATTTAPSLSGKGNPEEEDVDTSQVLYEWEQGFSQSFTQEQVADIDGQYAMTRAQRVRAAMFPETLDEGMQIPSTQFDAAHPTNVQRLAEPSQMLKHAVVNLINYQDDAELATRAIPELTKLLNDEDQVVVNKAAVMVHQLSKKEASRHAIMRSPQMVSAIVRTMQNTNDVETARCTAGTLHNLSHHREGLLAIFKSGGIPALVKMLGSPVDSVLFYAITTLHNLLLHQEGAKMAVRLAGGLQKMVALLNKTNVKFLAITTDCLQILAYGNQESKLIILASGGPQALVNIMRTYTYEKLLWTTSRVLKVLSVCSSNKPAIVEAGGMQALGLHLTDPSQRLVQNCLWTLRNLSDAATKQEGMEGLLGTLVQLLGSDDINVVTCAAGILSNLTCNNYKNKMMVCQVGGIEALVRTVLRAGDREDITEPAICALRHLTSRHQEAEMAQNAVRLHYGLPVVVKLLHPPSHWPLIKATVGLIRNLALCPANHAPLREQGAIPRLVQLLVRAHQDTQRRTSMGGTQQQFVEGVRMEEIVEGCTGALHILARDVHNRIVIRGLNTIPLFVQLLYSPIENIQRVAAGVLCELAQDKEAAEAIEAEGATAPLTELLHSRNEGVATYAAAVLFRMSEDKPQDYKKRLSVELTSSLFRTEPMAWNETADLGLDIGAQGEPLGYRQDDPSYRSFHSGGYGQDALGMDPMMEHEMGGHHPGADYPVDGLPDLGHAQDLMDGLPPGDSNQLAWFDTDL
UniProt O00512: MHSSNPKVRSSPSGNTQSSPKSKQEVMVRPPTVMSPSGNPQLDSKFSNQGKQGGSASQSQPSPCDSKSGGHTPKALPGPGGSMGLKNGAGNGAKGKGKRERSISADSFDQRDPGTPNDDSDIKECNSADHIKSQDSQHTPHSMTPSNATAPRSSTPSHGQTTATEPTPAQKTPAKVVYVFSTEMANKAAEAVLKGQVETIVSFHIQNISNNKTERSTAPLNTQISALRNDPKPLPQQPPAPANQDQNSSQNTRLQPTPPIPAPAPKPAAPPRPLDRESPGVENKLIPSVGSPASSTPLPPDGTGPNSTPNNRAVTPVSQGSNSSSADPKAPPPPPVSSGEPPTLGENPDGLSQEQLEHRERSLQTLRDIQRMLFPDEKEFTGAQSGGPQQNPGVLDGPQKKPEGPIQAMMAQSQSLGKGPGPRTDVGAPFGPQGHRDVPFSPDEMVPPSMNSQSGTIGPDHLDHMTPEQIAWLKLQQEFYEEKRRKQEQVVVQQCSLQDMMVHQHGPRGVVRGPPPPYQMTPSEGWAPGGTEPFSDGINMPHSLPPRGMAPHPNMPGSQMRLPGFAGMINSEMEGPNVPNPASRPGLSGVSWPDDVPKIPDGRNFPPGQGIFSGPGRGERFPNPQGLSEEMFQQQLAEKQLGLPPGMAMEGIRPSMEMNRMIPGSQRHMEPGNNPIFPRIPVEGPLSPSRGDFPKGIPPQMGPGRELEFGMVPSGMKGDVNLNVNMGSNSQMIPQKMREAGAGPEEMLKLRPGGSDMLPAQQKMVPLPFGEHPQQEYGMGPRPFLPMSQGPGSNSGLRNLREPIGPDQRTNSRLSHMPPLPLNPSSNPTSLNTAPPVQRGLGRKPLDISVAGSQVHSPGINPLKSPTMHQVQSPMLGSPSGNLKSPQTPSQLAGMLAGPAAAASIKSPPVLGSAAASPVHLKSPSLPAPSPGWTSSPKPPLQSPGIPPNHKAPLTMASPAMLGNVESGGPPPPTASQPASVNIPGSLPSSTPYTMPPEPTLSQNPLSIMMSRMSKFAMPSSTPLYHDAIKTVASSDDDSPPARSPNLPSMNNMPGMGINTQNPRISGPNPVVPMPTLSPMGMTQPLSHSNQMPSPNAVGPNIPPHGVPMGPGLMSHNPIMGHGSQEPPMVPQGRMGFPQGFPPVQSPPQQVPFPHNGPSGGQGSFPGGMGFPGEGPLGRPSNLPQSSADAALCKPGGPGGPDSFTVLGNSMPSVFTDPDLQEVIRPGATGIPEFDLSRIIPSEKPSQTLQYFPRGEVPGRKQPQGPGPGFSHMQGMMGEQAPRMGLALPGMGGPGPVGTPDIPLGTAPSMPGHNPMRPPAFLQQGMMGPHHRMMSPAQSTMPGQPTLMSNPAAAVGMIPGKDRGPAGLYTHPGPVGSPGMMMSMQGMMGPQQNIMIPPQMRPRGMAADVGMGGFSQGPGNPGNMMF

Experiments:
Homo sapiens = species: Homo sapiens; assay: Selectivity index, ratio of Ki for inhibition of C-terminal 6x-histidine tagged beta-catenin (138 to 686 residues) (unknown origin) expressed in Escherichia coli BL21 DE3/N-terminally biotinylated human E-cadherin (824 to 877 residues) protein-protein interactions by Alpha-screen assay to Ki for …
[1] = biological target: T1, beta-catenin-B-cell lymphoma 9 protein complex (Homo sapiens) (UniProt P35222+O00512); conditions: MDA-MB-231, 2 to 4 uM
[2] = biological target: T1, beta-catenin-B-cell lymphoma 9 protein complex (Homo sapiens); conditions: SW480, 1 to 4 uM
[3] = biological target: T1, beta-catenin-B-cell lymphoma 9 protein complex (Homo sapiens); conditions: SW480, 1 to 4 uM; remark: listed apart in the source
[4] = biological target: T1, beta-catenin-B-cell lymphoma 9 protein complex (Homo sapiens); conditions: SW480, 1 to 4 uM; remark: listed apart in the source
[5] = biological target: T1, beta-catenin-B-cell lymphoma 9 protein complex (Homo sapiens); conditions: SW480, 1 to 4 uM; remark: listed apart in the source

Ratio Ki (Homo sapiens): 19
Structure (SMILES): O=C(Nc1ccc(O[C@H]2CCNC2)c(-c2ccc(F)cc2)c1)c1ccc(O[C@@H]2CCNC2)c(-c2ccc(F)c(F)c2)c1

Structure (SMILES): O=C(Nc1ccc(O[C@H]2CCNC2)c(-c2ccc(F)cc2)c1)c1ccc(O[C@H]2CCNC2)c(-c2ccc(F)c(F)c2)c1
inhibition [1]: > 50% | inhibition [2]: Active | inhibition [3]: Active | inhibition [4]: Active | inhibition [5]: inactive

Ratio Ki (Homo sapiens): 40
Structure (SMILES): O=C(Nc1ccc(O[C@@H]2CCNC2)c(-c2ccc(F)cc2)c1)c1ccc(O[C@H]2CCNC2)c(-c2ccc(F)c(F)c2)c1

Ratio Ki (Homo sapiens): 52
Structure (SMILES): O=C(Nc1ccc(O[C@@H]2CCNC2)c(-c2ccc(F)cc2)c1)c1ccc(O[C@@H]2CCNC2)c(-c2ccc(F)c(F)c2)c1
